Tests used:
[1] = test system: LL/2-M1 cells (subline of LL/2 Lewis lung carcinoma cells); experiment: LL/2-M1 subcutaneous tumor growth in C57BL/6 mice; format: in vivo
[2] = test system: angiogenesis/capillary network formation; details: Alliegro et al. 1991; cited from earlier work
[3] = test system: tumor metastasis; details: Kellen et al. 1988; cited from earlier work

Compound | subcutaneous LL/2-M1 tumor growth ([1]; 0.5 mg/ml in drinking water plus 30 mg/kg i.p. daily Monday-Friday, FIG. 5) | Differences in lung metastasis number versus control ([1]; Table 6) | Mean lung mets/mouse ([1]; Table 6, lungs after euthanasia, day 21) [mets/mouse] | mice that had developed measurable s.c. tumors ([1]; by day 13) [%] | angiogenesis/capillary network formation in vitro [2] | tumor metastasis in vivo [3]
Cl.N=C(N)c1cc2c(I)cccc2s1 [Compound 5, 4-Iodobenzo[b]thiophene-2-carboxamidine hydrochloride] | inhibited | not statistically significant | 17.5 | 95 | – | –
N=C(N)NC(=O)c1nc(Cl)c(N)nc1N [amiloride] | – | – | – | – | inhibit | inhibit

Reference: patent US5340833A, “Urokinase inhibitors” (Eisai Co., Ltd., priority 1992, dated 1994)
